{"source": "patent US12076312B2", "about": "“Repurposing anti-androgen therapy for COVID-19 and immunotherapy” (Wisconsin Alumni Research Foundation, priority 2021, dated 2024)", "key": {"[1]": {"tested_on": "AR protein translocation in A549", "experiment": "AR immunofluorescent imaging, nuclear translocation", "settings": "A549, 5 μM enzalutamide with 1 nM R1881, 24 h"}, "[2]": {"tested_on": "AR protein translocation in H2228", "experiment": "AR immunofluorescent imaging, nuclear translocation", "settings": "H2228, 5 μM enzalutamide with 1 nM R1881, 24 h"}}}
{"smiles": "CNC(=O)c1ccc(N2C(=S)N(c3ccc(C#N)c(C(F)(F)F)c3)C(=O)C2(C)C)cc1F", "note": "[enzalutamide]", "values": [{"measurement": "transport of liganded AR to the nucleus", "setting": "[1]", "result": "disrupted"}, {"measurement": "transport of liganded AR to the nucleus", "setting": "[2]", "result": "disrupted"}]}
